Measured values reported in patent US9708325B2, “Sulfonimidoylpurinone compounds and derivatives for the treatment and prophylaxis of virus infection” (Hoffmann-La Roche Inc., priority 2015, dated 2017).

Sequences of proteins named here, by UniProt entry; tags and fusion partners are left off. Residues count along the entry.
UniProt Q9NYK1, 27-1049: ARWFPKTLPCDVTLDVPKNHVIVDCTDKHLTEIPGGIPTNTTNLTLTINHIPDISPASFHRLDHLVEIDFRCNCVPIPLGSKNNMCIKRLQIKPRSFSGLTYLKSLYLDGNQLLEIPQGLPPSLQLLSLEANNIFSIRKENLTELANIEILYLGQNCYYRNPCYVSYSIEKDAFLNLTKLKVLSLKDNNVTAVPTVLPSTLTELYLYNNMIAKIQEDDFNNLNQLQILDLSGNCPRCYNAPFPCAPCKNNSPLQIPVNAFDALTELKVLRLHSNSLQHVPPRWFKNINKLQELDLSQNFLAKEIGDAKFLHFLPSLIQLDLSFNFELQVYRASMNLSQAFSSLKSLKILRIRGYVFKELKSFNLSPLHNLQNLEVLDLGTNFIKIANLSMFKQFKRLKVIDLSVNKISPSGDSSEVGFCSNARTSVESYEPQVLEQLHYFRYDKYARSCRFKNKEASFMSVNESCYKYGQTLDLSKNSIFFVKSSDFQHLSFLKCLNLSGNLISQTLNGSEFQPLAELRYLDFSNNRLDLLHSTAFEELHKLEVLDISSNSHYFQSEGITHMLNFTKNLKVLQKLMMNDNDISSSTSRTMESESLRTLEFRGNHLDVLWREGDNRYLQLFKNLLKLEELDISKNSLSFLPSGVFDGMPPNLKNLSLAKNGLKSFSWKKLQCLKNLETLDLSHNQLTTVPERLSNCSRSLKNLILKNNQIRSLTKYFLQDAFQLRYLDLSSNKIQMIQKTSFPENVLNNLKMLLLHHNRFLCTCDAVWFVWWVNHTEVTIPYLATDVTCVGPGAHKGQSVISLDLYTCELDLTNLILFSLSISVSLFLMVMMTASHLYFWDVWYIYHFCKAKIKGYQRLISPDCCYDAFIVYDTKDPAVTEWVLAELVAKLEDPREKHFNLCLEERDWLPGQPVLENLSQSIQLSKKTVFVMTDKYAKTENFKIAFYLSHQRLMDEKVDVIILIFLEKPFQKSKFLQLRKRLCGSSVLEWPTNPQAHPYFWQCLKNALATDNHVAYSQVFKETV

Target: human TLR7 (Homo sapiens (Human), UniProt Q9NYK1)
Test: HEK-Blue-hTLR7 cells assay (SEAP reporter)
Format: cell-based
Conditions: HEK-Blue-hTLR7 (EC50 (μM)), 20 hrs
Protocol: A stable HEK-Blue-hTLR7 cell line was purchased from InvivoGen (Cat.#: hkb-htlr7, San Diego, Calif., USA). These cells were designed for studying the stimulation of human TLR7 by monitoring the activation of NF-κB. […] Therefore the reporter expression was regulated by the NF-κB promoter upon stimulation of human TLR7 for 20 hrs. The cell culture supernatant SEAP reporter activity was determined using QUANTI-Blue™ kit (Cat.#: rep-qb1, Invivogen, San Diego, Ca, USA) at a wavelength of 640 nm, a detection medium that turns purple or blue in the presence of alkaline phosphatase.
HEK-Blue-hTLR7 cells were incubated at a density of 250,000˜450,000 cells/mL in a volume of 180 μL in a 96-well plate in Dulbecco's Modified Eagle's medium (DMEM) containing 4.5 g/L glucose, 50 U/mL penicillin, […], […], 2 mM L-glutamine, 10% (V/V) heat-inactivated fetal bovine serum for 24 hrs. Then the HEK-Blue-hTLR-7 cells were incubated with addition of 20 μL test compound in a serial dilution in the presence of final DMSO at 1% and perform incubation under 37° C. in a CO2 incubator for 20 hrs. Then 20 μL of the supernatant from each well was incubated with 180 μL Quanti-blue substrate solution at 37° C. for 2 hrs and the absorbance was read at 620˜655 nm using a spectrophotometer. […]

Compound `COCCS(=N)(=O)c1nc(N)c2[nH]c(=O)n(Cc3ccccc3)c2n1` (single isomer, unassigned) [Example 3-A, 6-Amino-9-benzyl-2-(2-methoxyethylsulfonimidoyl)-7H-purin-8-one] has an EC50 of 0.27 µM.
